# Biological target: T1, CI-AMPARs (Rattus norvegicus, UniProt P19491, Q607R)
# By UniProt entry, the sequences of proteins in these tests, tags left out. Residues count along the entry.
# UniProt P19491, 22-883 Q607R: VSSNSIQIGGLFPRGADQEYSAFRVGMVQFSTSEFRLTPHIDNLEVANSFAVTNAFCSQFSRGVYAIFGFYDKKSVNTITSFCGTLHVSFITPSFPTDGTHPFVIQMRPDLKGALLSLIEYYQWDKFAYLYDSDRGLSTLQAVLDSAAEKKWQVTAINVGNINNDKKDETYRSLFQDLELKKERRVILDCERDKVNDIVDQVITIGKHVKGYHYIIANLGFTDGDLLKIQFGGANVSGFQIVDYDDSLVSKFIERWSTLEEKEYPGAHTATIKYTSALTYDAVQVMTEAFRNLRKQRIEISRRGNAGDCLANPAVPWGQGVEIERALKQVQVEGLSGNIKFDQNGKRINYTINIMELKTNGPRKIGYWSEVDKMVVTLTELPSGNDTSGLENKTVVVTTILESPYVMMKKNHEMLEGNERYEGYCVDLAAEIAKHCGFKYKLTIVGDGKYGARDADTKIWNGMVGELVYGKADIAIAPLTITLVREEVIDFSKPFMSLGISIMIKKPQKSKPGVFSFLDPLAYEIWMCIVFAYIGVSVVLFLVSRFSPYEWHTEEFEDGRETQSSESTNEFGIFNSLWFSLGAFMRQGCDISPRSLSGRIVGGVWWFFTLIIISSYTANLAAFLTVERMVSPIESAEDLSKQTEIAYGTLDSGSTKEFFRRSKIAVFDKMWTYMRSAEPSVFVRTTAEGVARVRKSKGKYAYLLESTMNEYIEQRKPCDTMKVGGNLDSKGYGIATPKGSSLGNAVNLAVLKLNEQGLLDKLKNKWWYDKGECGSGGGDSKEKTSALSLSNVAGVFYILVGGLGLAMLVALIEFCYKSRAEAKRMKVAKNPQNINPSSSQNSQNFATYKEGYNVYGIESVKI
# T1 construct: activity against native calcium-permeable AMPA receptors (CP-AMPARs) and calcium-impermeable AMPA receptors (CI-AMPARs); endogenous in cells; host or cells: acutely isolated pyramidal neurons from the CA1 area of Wistar rat hippocampal slices
# Test: Whole-cell patch-clamp of kainate-induced currents in isolated hippocampal CA1 pyramidal neurons
# Type: cell-based, Wistar rat
# Conditions: for % block: DNQX, 200 nM, representative recording, Figure 3D
# Protocol: All experimental procedures were approved by the Animal Care and Use Committee of the I.M. Sechenov Institute of Evolutionary Physiology and Biochemistry of the Russian Academy of Sciences. Wistar rats (13–19 days old) were anesthetized with sevoflurane and then decapitated. Maximum effort was made to minimize the number of animals used. Brains were removed quickly and cooled to 2–4°C in an ice bath. […] The antagonism of CI-AMPARs was studied on pyramidal neurons from the CA1 area of the hippocampus.
# Series resistance of about 20 MΩ was compensated by 70–80% and monitored during experiments. Currents were recorded using an EPC-8 amplifier (HEKA Electronics, Lambrecht, Germany), filtered at 5 kHz, sampled, and stored on a personal computer. Drugs were applied using the RSC-200 perfusion system (BioLogic Science Instruments, Claix, France) under computer control. The solution exchange time in the whole-cell mode was 50–60 ms. […] The pipette solution contained (in mM) CsF 100, CsCl 40, NaCl 5, CaCl2 0.5, EGTA 5, and HEPES 10 (pH was adjusted to 7.2 with CsOH). Experiments were performed at room temperature (22–24°C). […] Lamotrigine, topiramate, levetiracetam, felbamate, carbamazepine, tiagabin, vigabatrin, zonisamide, and gabapentin were purchased from Tocris Bioscience (Bristol, United Kingdom). Perampanel was from MedChemExpress (Stockholm, Sweden). Kinetics of transient processes of more than 20-ms duration was approximated by exponential functions. Experiments were performed at −80 mV holding voltage. All experimental data are presented as mean ± SD estimated from at least four experiments. Significance of the effects was tested with paired t test. Differences were considered significant at p < 0.05. 3D structures of compounds were calculated by the ZMM software (zmmsoft.ca).
smiles,measurement,setting,value
O=c1[nH]c2cc([N+](=O)[O-])c([N+](=O)[O-])cc2[nH]c1=O [DNQX],effect on maximal response to kainate,0.2 µM DNQX,did not change it
same,effect on the slow phase of recovery from 50 µM phenytoin,10 µM DNQX,remains unchanged
same,Activity drop in the presence of cyclothiazide,"100 µM cyclothiazide, 50 µM kainate",less active in the presence of cyclothiazide and Yes
same,Activity drop at high (500 µM) kainate concentration,50 vs 500 µM kainate,more active in the case of lower kainate concentration and Yes
same,decrease in the % of inhibition with the increase in agonist concentration,50 vs 500 µM kainate,30–40%
same,% block,Ka 50 μM,52%
same,% block,Ka 500 μM,14%
same,More active against CI-AMPARs,comparison of CI-AMPARs and CP-AMPARs,slightly more active against hippocampal CI-AMPARs and Yes

# — publication PMC8688955 (Frontiers in Pharmacology, 2021)
